Results taken from paper PMC5127641.

Amino acid sequences for entries named in this document (tags omitted). A change or cut given only in a name is not applied to a line headed by its entry.
UniProt Q07820: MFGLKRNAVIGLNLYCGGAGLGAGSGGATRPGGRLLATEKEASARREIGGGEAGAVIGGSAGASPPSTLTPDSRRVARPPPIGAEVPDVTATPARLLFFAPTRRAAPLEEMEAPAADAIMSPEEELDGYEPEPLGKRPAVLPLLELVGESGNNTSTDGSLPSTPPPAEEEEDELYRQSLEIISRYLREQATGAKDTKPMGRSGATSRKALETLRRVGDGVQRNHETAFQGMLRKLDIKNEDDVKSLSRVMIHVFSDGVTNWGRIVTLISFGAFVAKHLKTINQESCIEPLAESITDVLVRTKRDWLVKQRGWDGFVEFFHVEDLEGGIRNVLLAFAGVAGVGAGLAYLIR

Molecular target: Mcl-1, biotinylated (C-terminal avi-6His) (human) (UniProt Q07820)

αMCL1 (anti-Mcl-1; computational design M-CDP04) (designed binder)
decrease in long-term (seven day) colony survival of Mcl-1-dependent MEFs on induced expression of αMCL1: 90%
